{"source": "PubChem BioAssay AID601", "about": "(SRMLSC, 2007)", "note": "The list shows a part of the results, in another mix than the full data. Activity calls are given as the source filed them.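 Rule for the calls: active = viability loss from added drug above about 55%, and viability with drug at most 40%, in both replicates (limit read from the data, passing the limit was not always enough); inconclusive = both conditions met in only one replicate; inactive = neither replicate meets both conditions.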"}
{"experiment": "MRP1 drug-resistance reversers in H69AR cells – cell-based, doxorubicin co-treatment, pilot screen (AID 601)", "conditions": "H69AR cells + 2 uM doxorubicin, CellTiter-Glo, 72 h; at 10 µM; hits give high values"}
{"smiles": "Cc1ccc(C)c(NP(C)(=O)Oc2ccccc2)c1", "note": "(stereo not given)", "differential viability (reversal)": "inactive: 3.86%"}
{"smiles": "CP(=S)(Nn1cnnc1)Oc1ccccc1", "note": "(stereo not given)", "differential viability (reversal)": "inactive: -10%"}
{"smiles": "CP(=O)(Nc1ccccn1)Oc1ccccc1", "note": "(stereo not given)", "differential viability (reversal)": "inactive: 4.43%"}
{"smiles": "CN(C)CCOC(=O)C(O)(c1ccccc1)C1CCCCC1", "note": "(stereo not given)", "differential viability (reversal)": "inactive: 10%"}
{"smiles": "CP(=O)(Nc1ccc2c(c1)OCCO2)Oc1ccccc1", "note": "(stereo not given)", "differential viability (reversal)": "inactive: -0.85%"}
